Compounds with a hit are over-represented: about 1.9% of the library has one in this group of screens.
PDI turbidity: inhibitors of human PDI, primary screen, biochemical, turbidity, single point, plate reader. Protein disulfide-isomerase (Homo sapiens), P07237. PDI insulin aggregation turbidity, A650, 90 min. inhibition, % at 10 µM. 350,000 tested, 0.052% active;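 active means mean inhibition across replicates of 30% or more, whatever share of single replicates reach that level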
PglD inh: C. jejuni PglD acetyltransferase inhibitors, primary screen, biochemical, DTNB colorimetric, single point; purified PglD enzyme, DTNB colorimetric CoA detection; inhibition, % at 12.5 µM; 360,000 tested, 0.098% active; AID 602405, 2012; in the data active means inhibition above about 16%, passing the limit was not always enough
FGF22 binding-1: binders of human FGF22 protein, primary screen, FGF22 synaptogenesis inhibitor project, biophysical, thermal shift, single point; Fibroblast growth factor 22 (Homo sapiens), Q9HCT0; recombinant FGF22 thermal shift, SYPRO orange fluorescence; percent of sucrose octasulfate shift, DMSO zero; 340,000 tested, 1.5% active; activity (Tm shift, normalised), % at 9.99 µM;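 active means mean Tm shift, scaled 0 neutral to 100 positive control, at about 1.3% or above, every replicate too, limit read from the data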
ARNT TACC3 PPI: disruptors of ARNT/TACC3 protein interaction, primary screen, biochemical, AlphaScreen, single concentration. AID 623870, 2012. 390,000 tested, 0.66% active. inhibition, % at 9.99 µM. AlphaScreen His-ARNT PAS-B/GST-TACC3 binding, luminescence; TACC3 fragment carries E629A point mutation. Transforming acidic coiled-coil-containing protein 3 (Homo sapiens), Q9Y6A5;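 active means mean inhibition of replicates at least 50% and at least half of replicates each reaching 50%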
UUG fidelity: modulators of yeast start codon fidelity, primary screen, whole organism, S. cerevisiae, single point, plate reader | AID 602363, 2012 | S. cerevisiae UUG-firefly luciferase reporter, luminescence/redox ratio | activity score, % at 18.7 µM | hit rate 0.13% among 350,000;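 active = replicate mean at a twofold rise or more, about +100% in these data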;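 also: firefly luciferase made from a UUG start codon reports start codon fidelity; reporter light over untreated wells divided by growth signal over untreated wells; some hits fall short of that in this replicate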
ERp5 inh: inhibitors of ERp5-driven insulin aggregation, primary screen, biochemical, turbidity, absorbance 650 nm, single point; Protein disulfide-isomerase A6 (Homo sapiens), Q15084; 90 min; inhibition, % at 9.99 µM; 350,000 tested, 0.05% active;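 active means mean replicate inhibition above about 25%, with every replicate also reaching it, limit read from the data, passing the limit was not always enough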
FGF22 binding-2: binders of human FGF22 protein, dose response, FGF22 synaptogenesis inhibitor project, biophysical, thermal shift, cherry-pick retest | recombinant FGF22 thermal shift, SYPRO orange fluorescence | thermal shift activity, °C (ΔTm) at 38 µM | 1,000 tested, 2% active | shares compounds with FGF22 binding-1;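 active means fitted rise in melting shift crosses a set limit at or below the top valid dose tested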
SYPRO no-protein: compound-only thermal shift signal without protein, dose response, artefact control for FGF22 binder project, biochemical, cherry-picked samples, RT-PCR instrument; compound-only SYPRO orange thermal shift counter-screen, no protein; AC50, µM (highest dose often 38 µM); shares compounds with FGF22 binding-1; 1,000 tested, 2% active;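 active means rising signal whose fitted curve reaches the 0.54 level within the top valid dose, showing a melting point, actives reach about 13 µM in these data; inactive means the rest, including activity in the opposite direction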; further: value is where the raw curve crosses a fixed level and not half-maximal
A number is an active result; - = inactive; . = not tested or not shown; ! = a repeat was not active.

SMILES	PDI turbidity	PglD inh	FGF22 binding-1	ARNT TACC3 PPI	UUG fidelity	ERp5 inh	FGF22 binding-2	SYPRO no-protein
C[C@H](CO)N1C[C@H](C)[C@@H](CN(C)CC2CC2)Oc2ccc(NS(=O)(=O)c3cccs3)cc2C1=O	.	-	5.2	-	-	-	-	-
Cc1ccc(S(=O)(=O)Nc2ccc3c(c2)C(=O)N([C@@H](C)CO)C[C@H](C)[C@@H](CN(C)CC2CCCCC2)O3)cc1	.	-	1.5	-	-	-	-	-
C[C@H]1CN([C@@H](C)CO)C(=O)c2cc(NS(=O)(=O)c3ccccc3)ccc2O[C@@H]1CN(C)C	.	-	1.4	-	.	-	-	-
Cc1noc(C)c1NC(=O)Nc1cccc2c1O[C@H](CN(C)C(=O)Nc1ccc(F)cc1)[C@H](C)CN([C@H](C)CO)C2=O	.	.	.	.	-	.	.	.
C[C@@H]1CN([C@H](C)CO)C(=O)Cc2cc(N(C)C)ccc2O[C@@H]1CN(C)Cc1ccc(Cl)c(Cl)c1	.	-	39.9	-	-	-	.	-
C[C@@H]1CN([C@@H](C)CO)C(=O)c2cc(NS(C)(=O)=O)ccc2O[C@@H]1CN(C)Cc1ccc2c(c1)OCO2	.	-	1.9	-	.	-	-	-
CC(C)NC(=O)Nc1cccc2c1O[C@H](CN(C)Cc1ccc(C(=O)Nc3ccccc3N)cc1)[C@H](C)CN([C@@H](C)CO)C2=O	.	.	-	.	.	-	.	.
C[C@H]1CN([C@@H](C)CO)C(=O)c2cc(N(C)C)ccc2O[C@@H]1CN(C)Cc1ccc(Cl)c(Cl)c1	.	-	-	.	-	-	.	.
C[C@H](CO)N1C[C@H](C)[C@H](CN(C)C)Oc2ccc(NC(=O)NC3CCCCC3)cc2CC1=O	.	-	2.0	-	-	-	-	-
CC(C)NC(=O)Nc1cccc2c1O[C@@H](CN(C)Cc1ccc(C(=O)Nc3ccccc3N)cc1)[C@@H](C)CN([C@H](C)CO)C2=O	.	.	1.5	.	.	-	-	-
Cc1noc(C)c1NC(=O)Nc1ccc2c(c1)CC(=O)N([C@@H](C)CO)C[C@H](C)[C@@H](CN(C)Cc1ccc3c(c1)OCO3)O2	.	-	1.5	-	-	-	-	-
C[C@@H]1CN([C@H](C)CO)C(=O)c2cc(NC(=O)Cc3cn(C)c4ccccc34)ccc2O[C@@H]1CN(C)S(=O)(=O)c1ccccc1	.	-	25.0	-	-	-	-	-
C[C@H]1CN([C@@H](C)CO)C(=O)c2cc(NC(=O)Cc3cn(C)c4ccccc34)ccc2O[C@H]1CN(C)S(=O)(=O)c1ccccc1	.	-	-	-	-	-	.	.
CCCC#Cc1ccc([C@@H]2[C@H](CO)N3CCCCN(CC4CCOCC4)C[C@@H]23)cc1	.	-	-	-	-	-	.	.
O=C(C[C@@H]1CC[C@@H](NC(=O)Nc2cc(F)ccc2F)[C@H](CO)O1)NCCCN1CCOCC1	.	-	38.6	-	-	-	-	-
O=C(C[C@H]1CC[C@@H](NC(=O)Nc2cc(F)ccc2F)[C@@H](CO)O1)Nc1ccc(-c2ccccc2)cc1	.	-	1.3	-	-	-	-	-
C[C@H](NC(=O)C[C@@H]1CC[C@@H](NC(=O)Nc2ccc3c(c2)OCO3)[C@@H](CO)O1)c1ccccc1	.	-	6.9	-	-	-	-	-
O=C(C[C@@H]1CC[C@H](NC(=O)c2ccc3c(c2)OCO3)[C@H](CO)O1)NCc1ccc(Oc2ccccc2)cc1	.	-	16.1	-	.	-	-	-
COCC(=O)Nc1ccc2c(c1)[C@@H]1C[C@@H](CC(=O)NCC3CC3)O[C@@H](CO)[C@@H]1O2	.	-	-	-	-	-	.	.
COc1cccc(NC(=O)N[C@H]2CC[C@H](CC(=O)Nc3ccccc3)O[C@@H]2CO)c1	.	-	-	-	-	-	.	.
O=C(NCC[C@H]1CC[C@@H](NC(=O)Nc2cc(F)ccc2F)[C@@H](CO)O1)Nc1ccc(F)cc1	.	-	-	-	-	-	.	.
O=C(NCC[C@@H]1CC[C@@H](NC(=O)Nc2cc(F)ccc2F)[C@@H](CO)O1)Nc1ccc(F)cc1	.	-	1.3	-	-	-	-	-
COc1cccc(NC(=O)N[C@@H]2CC[C@@H](CC(=O)Nc3ccccc3)O[C@H]2CO)c1	.	-	22.4	-	-	-	-	-
Cc1noc(C)c1NC(=O)Nc1ccc2c(c1)C(=O)N([C@H](C)CO)C[C@H](C)[C@@H](CN(C)S(=O)(=O)c1c(C)noc1C)OCCCC[C@H](C)O2	.	-	-	-	-	-	.	.
Cc1noc(C)c1S(=O)(=O)N(C)C[C@@H]1Oc2ccc(NC(=O)NC3CCCCC3)cc2CC(=O)N([C@@H](C)CO)C[C@@H]1C	.	-	-	-	-	-	.	.
SMILES	PDI turbidity	PglD inh	FGF22 binding-1	ARNT TACC3 PPI	UUG fidelity	ERp5 inh	FGF22 binding-2	SYPRO no-protein
COc1ccccc1NC(=O)N[C@@H]1CC[C@@H](CCn2cc(-c3ccccc3OC)nn2)O[C@@H]1CO	.	-	1.7	-	-	-	-	-
COc1ccccc1NC(=O)N[C@@H]1CC[C@H](CCn2cc(-c3ccccc3OC)nn2)O[C@H]1CO	.	-	-	-	-	-	.	.
O=C(Nc1ccccc1)c1[nH]ncc1[N+](=O)[O-]	-	-	.	-	-	.	.	.
COc1ccc(NC(=O)c2[nH]ncc2[N+](=O)[O-])cc1	-	.	1.4	-	.	-	-	-
CNC(=O)C[C@H]1CC[C@H]2[C@@H](COC[C@H](O)CN2S(=O)(=O)c2ccc(Oc3ccccc3)cc2)O1	.	-	-	-	-	-	.	.
C[C@H](CO)N1C[C@H](C)[C@H](CN(C)C(=O)c2cc(-c3ccccc3)on2)OCc2cnnn2CCCC1=O	-	-	29.8!	-	-	-	-	-
C[C@@H]1CN([C@@H](C)CO)C(=O)CCCn2nncc2CO[C@H]1CN(C)Cc1ccccc1C(=O)O	.	-	1.3	.	-	-	-	-
C[C@H](CO)N1C[C@H](C)[C@H](CN(C)S(=O)(=O)c2ccc(F)cc2)OCc2cnnn2CCCC1=O	-	-	1.5!	-	-	-	-	-
